By UniProt entry, the sequences of proteins in these tests, tags left out. Where a name states a change or a piece, a line headed by the entry shows the natural chain unless it says otherwise.
UniProt P43116: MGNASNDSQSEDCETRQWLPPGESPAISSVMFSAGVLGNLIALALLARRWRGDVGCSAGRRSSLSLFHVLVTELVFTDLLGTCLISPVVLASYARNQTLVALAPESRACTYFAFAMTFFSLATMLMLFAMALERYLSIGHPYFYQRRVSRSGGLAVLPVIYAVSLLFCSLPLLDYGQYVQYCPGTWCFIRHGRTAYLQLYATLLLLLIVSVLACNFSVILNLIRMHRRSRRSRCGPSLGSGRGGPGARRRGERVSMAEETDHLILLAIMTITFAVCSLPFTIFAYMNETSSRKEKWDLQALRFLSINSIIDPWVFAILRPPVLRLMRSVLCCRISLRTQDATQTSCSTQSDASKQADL

According to ChEMBL document CHEMBL4325826, “Identification of a Selective, Non-Prostanoid EP2 Receptor Agonist for the Treatment of Glaucoma: Omidenepag and its Prodrug Omidenepag Isopropyl” (J Med Chem, 2018):

Target: Prostaglandin E2 receptor EP2 subtype (Homo sapiens, UniProt P43116)
Experiment: Displacement of [3H]prostaglandin E2 from human EP2 receptor expressed in HEK293 cell membranes after 60 mins by liquid scintillation counting

- IC50: 4 nM
Structure (SMILES): CCCCC[C@H](O)/C=C/[C@H]1[C@H](O)CC(=O)[C@@H]1C/C=C\CCCC(=O)O [DINOPROSTONE]
